Patent US11464788B2, “Oligomer-corticosteroid conjugates” (Nektar Therapeutics, priority 2007, dated 2022)

Biological target: T1, glucocorticoid receptors (Rattus norvegicus, UniProt P06536)
T1 sequence (P06536 1-795): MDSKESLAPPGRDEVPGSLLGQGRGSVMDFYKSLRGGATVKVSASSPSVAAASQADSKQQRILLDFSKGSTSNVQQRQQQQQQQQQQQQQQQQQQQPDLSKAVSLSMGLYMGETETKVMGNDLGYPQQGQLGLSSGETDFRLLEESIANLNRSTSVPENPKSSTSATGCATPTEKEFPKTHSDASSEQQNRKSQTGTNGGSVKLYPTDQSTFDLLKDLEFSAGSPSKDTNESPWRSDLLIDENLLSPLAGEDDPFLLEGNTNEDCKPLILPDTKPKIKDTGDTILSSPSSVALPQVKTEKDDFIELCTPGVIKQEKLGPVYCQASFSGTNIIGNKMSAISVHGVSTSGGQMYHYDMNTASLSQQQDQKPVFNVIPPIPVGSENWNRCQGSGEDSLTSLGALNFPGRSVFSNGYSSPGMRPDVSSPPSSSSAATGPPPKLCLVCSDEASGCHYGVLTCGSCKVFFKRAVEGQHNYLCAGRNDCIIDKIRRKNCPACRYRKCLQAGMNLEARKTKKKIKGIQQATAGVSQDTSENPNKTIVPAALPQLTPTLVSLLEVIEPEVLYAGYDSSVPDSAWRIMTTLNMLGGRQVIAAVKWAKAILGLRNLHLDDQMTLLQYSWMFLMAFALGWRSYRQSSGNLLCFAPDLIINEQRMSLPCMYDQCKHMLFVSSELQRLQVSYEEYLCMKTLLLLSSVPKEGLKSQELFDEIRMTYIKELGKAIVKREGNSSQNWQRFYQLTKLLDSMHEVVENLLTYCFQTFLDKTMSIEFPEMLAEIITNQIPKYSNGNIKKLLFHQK
Test: Glucocorticoid binding assay (competitive binding with [6,7-3H]triamcinolone acetonide)
Experimental: The assay was used to determine whether the tested compounds bound to the glucocorticoid binding site and is based on procedures set forth in the literature. […] Int. […] Briefly, using competitive binding of with the radioligand “[6,7-^3H]triamcinolone acetonide” (30-50 Cl/mmol), reactions were carried out in 50 mM KH2PO4 (pH 7.4) containing 10 mM sodium molybdate and 10 mM α-monothioglycerol at 0° C. for 16 hours. The glucocorticoid receptors were obtained from rat brains. The reactions were terminated by rapid vacuum filtration onto glass fiber filters. Radioactively trapped onto the filters is determined and compared to control values. […] A higher IC50 value reflects a weaker binding affinity.

## C[C@]12CCC(=O)C=C1CC[C@@H]1[C@@H]2C(=O)C[C@@]2(C)[C@H]1CC[C@]2(O)C(=O)CO [Cortisone]
  IC50: 3.89 µM
